Published antibiotic growth screens (doi:10.1038/s41589-023-01349-8)
Some of the results follow.

These compounds were tested on A. baumannii ATCC 17978 (assay: relative growth (fraction of control); higher = less inhibition). Settings: 50 µM.
`CC(C)CNC(=O)C(=O)NCc1ccccn1` gave a relative growth of 1.01.
`CC(=O)N[C@@H](Cc1ccccc1)C(=O)NN` gave a relative growth of 1.08.
With `[N-]=[N+]=Nc1ccccc1[C@@H]1OC(c2ccc(OCCCO)cc2)=N[C@]1(CCS(=O)(=O)c1ccccc1)C(=O)NC[C@@H](O)CO` the relative growth was 0.931.
`COC(=O)C[C@H]1CC[C@@H](N)[C@H](CO)O1` gave a relative growth of 0.92.
`O=C1c2ccccc2-c2c(-c3ccccc3)nc3ccccc3c21` showed a relative growth of 1.01.
Compound `COC(=O)C(CCCN1C(=O)c2ccccc2C1=O)(NC(C)=O)c1nn[nH]n1` (configuration not stated) has a relative growth of 1.01.
`CCCCC1=NC2(CCCC2)C(=O)N1Cc1ccc(-c2ccccc2-c2nnn[nH]2)cc1` gave a relative growth of 1.02.
`CC(C)NCC(O)c1ccc(NS(C)(=O)=O)cc1.Cl` (configuration not stated) was tested, and the relative growth was 0.88.
`CO/N=[N+](\[O-])N1CCC[C@H](C(N)=O)C1` was tested, and the relative growth was 0.954.
`CO[C@H]1CN(C)C(=O)c2ccc(NC(=O)C3CC3)cc2OC[C@H](C)N(C(=O)C2CCOCC2)C[C@H]1C` showed a relative growth of 0.936.
Compound `O=C(C[C@H]1C[C@@H]2c3cc(NS(=O)(=O)c4ccc(F)cc4)ccc3O[C@@H]2[C@@H](CO)O1)N1CCOCC1` has a relative growth of 0.95.
`C[C@H]1COC2=C1C(=O)C(=O)c1c2ccc2c1CCCC2(C)C` gave a relative growth of 1.07.
`NC(=O)Cc1cccc(C(=O)c2ccccc2)c1N` was tested, and the relative growth was 0.912.
`COc1ccccc1CNC(=O)C[C@@H]1C[C@H]2c3cc(NC(=O)c4cccnc4)ccc3O[C@H]2[C@H](CO)O1` was tested, and the relative growth was 0.983.
In the case of `COc1cccc(S(=O)(=O)Nc2ccc3c(c2)[C@H]2C[C@H](CC(=O)NCCc4ccccc4)O[C@H](CO)[C@H]2O3)c1`, the relative growth is reported as 0.945.
`NNC(=O)c1cc2ccccc2[nH]1` showed a relative growth of 1.15.
`COc1ccc(-c2nc3cc(C4=NNC(=O)CC4C)ccc3[nH]2)cc1` (configuration not stated) was tested, and the relative growth was 1.05.
Work on `CC(=O)N(C)C[C@H]1Oc2ncc(C#C[C@@H](C)O)cc2C(=O)N([C@@H](C)CO)C[C@@H]1C` yielded a relative growth of 1.03.
Compound `O=C(CCCl)NCc1ccccc1` has a relative growth of 1.04.
In the case of `COCC#Cc1ccc2c(c1)O[C@H](CN(C)S(=O)(=O)c1ccc(F)cc1)[C@@H](C)CN([C@H](C)CO)S2(=O)=O`, the relative growth is reported as 0.86.
In the case of `CNS(=O)(=O)Cc1ccc2[nH]cc(CCN(C)C)c2c1`, the relative growth is reported as 1.22.
`CCn1nnc2c(=S)nc[nH]c21` gave a relative growth of 0.837.
With `O=c1c(O)c(-c2ccc(O)c(O)c2)oc2cc(O)ccc12` the relative growth was 0.935.
Compound `NS(=O)(=O)c1cc2c(cc1Cl)N=CNS2(=O)=O` has a relative growth of 0.99.
Compound `O=C1O[C@@H](c2ccccc2)[C@@H](c2ccccc2)N2[C@@H](c3ccc(O)cc3)[C@]3(C(=O)Nc4ccccc43)[C@@H](C(=O)NC[C@H](O)c3ccccc3)[C@H]12` has a relative growth of 0.963.
Compound `O=c1cn[nH]c(NC2CCCC2)n1` has a relative growth of 1.01.
Work on `C=C(C)[C@]1(O)OC(=O)C=C1OC` yielded a relative growth of 0.951.
`C/C=C/c1ccc2c(c1)O[C@@H](CN(C)S(=O)(=O)c1ccc(C)cc1)[C@@H](C)CN([C@@H](C)CO)S2(=O)=O` gave a relative growth of 1.03.
With `CCOC(=O)[C@H](CCc1ccccc1)N[C@@H](C)C(=O)N1[C@H](C(=O)O)C[C@@H]2CCC[C@@H]21` the relative growth was 0.865.
With `O=C(N[C@H]1CC=CC[C@H](CC(=O)N(CCO)Cc2ccccc2)C(=O)N[C@@H](Cc2c[nH]c3ccccc23)COC1=O)OCC1c2ccccc2-c2ccccc21` the relative growth was 1.02.
Compound `C#CCCCCCCCCCCCC(O)CC(O)CO.C=CCCCCCCCCCCCC(O)CC(O)CO` (configuration not stated) has a relative growth of 1.11.
For `Cn1cnc(S(=O)(=O)N[C@H]2CC[C@H](CC(=O)Nc3ccccc3)O[C@H]2CO)c1`, the relative growth was 1.06.
In the case of `NC(=O)c1ncn([C@@H]2O[C@H](CO)[C@@H](O)[C@H]2O)n1`, the relative growth is reported as 0.914.
In the case of `Cc1ccccc1S(=O)(=O)N1C[C@@H](O)COC[C@H]2O[C@@H](CC(=O)N3CCC(Cc4ccccc4)CC3)CC[C@@H]21`, the relative growth is reported as 0.781.
Compound `O=C(CN1CCOCC1)N[C@H]1CC[C@@H](CCNC(=O)C2CCC2)O[C@H]1CO` has a relative growth of 0.946.
`CC(C)(C)NC[C@@H](O)COc1nsnc1N1CCOCC1.O=C(O)/C=C\C(=O)O` was tested, and the relative growth was 1.13.
For `COCCOC(=O)N1C(=O)[C@@]2(c3cc(C#Cc4ccc(OC)cc4)ccc31)[C@H](C(=O)N1CCc3cc(OC)c(OC)cc3C1)[C@H]1C(=O)O[C@H](c3ccccc3)[C@H](c3ccccc3)N1[C@@H]2c1ccc(OCCO)cc1`, the relative growth was 1.04.
`Cc1ccc(-c2cnc3c(c2)C(=O)N([C@H](C)CO)C[C@H](C)[C@H](CN(C)C(=O)Cc2ccncc2)O3)cc1` was tested, and the relative growth was 0.943.
`COc1cccc(S(=O)(=O)N(C)C[C@H]2Oc3cc(C4=CCCC4)ccc3S(=O)(=O)N([C@@H](C)CO)C[C@@H]2C)c1` was tested, and the relative growth was 1.03.
`C(=C\[C@@H]1Nc2ccccc2-c2nc3ccccc3n21)/c1ccccc1` was tested, and the relative growth was 1.01.
Work on `Br.Cc1ccc(Sc2ccccc2N2CCNCC2)c(C)c1` yielded a relative growth of 1.12.
In the case of `C=CCON1C(=O)[C@@H]2[C@@H](C1=O)[C@@H]1C=C[C@@H]2O1`, the relative growth is reported as 0.967.
With `C[C@H](CO)N1C[C@H](C)[C@H](CN(C)C)Oc2cc(C#CCN(C)C)ccc2S1(=O)=O` the relative growth was 1.1.
With `CC1=CC2C(C(C)C)CCC(C)(O)C2CC1` (configuration not stated) the relative growth was 1.06.
`C[C@H]1CN([C@@H](C)CO)C(=O)Cc2cc(NC(=O)Nc3ccc(Cl)c(Cl)c3)ccc2O[C@H]1CN(C)S(=O)(=O)c1ccc(Cl)cc1` gave a relative growth of 1.08.
`O=C(C[C@H]1CC[C@@H]2[C@H](COC[C@@H](O)CN2C(=O)c2ccccc2)O1)N1CCOCC1` showed a relative growth of 1.01.
`NS(=O)(=O)c1cc(C(=O)O)c(NCc2ccco2)cc1Cl` gave a relative growth of 1.02.
With `CC(C)n1c(-c2ccccc2)cs/c1=N\c1ccccc1` the relative growth was 0.957.
`CN(c1c[nH]c(=O)[nH]c1=O)C1CCCCC1` showed a relative growth of 0.982.
For `C=CCSc1n[nH]c2nc(=O)cc(N)n12`, the relative growth was 1.02.
`C=CCn1cnc2c1c(=O)[nH]c(=O)n2C` showed a relative growth of 1.12.
In the case of `NCC[C@@H]1CC[C@@H](NC(=O)C2CC2)[C@H](CO)O1`, the relative growth is reported as 1.05.
Work on `CCO[C@H]1CC(C)(C)NC(=S)N1` yielded a relative growth of 1.03.
With `COc1ccc(CN(CCN(C)C)c2ccccn2)cc1.O=C(O)/C=C\C(=O)O` the relative growth was 0.927.
`CC(C)(C)c1ccc(NC(=O)c2ccc(C(C)(C)C)s2)cc1` gave a relative growth of 1.08.
`O=C(CN1CCOCC1)N[C@H]1CC[C@@H](CCNC(=O)C2CCCCC2)O[C@H]1CO` showed a relative growth of 1.1.
`COc1cc2nc(N3CCCN(Cc4ccccc4)CC3)nc(Nc3ccc(F)c(Cl)c3)c2cc1OC` was tested, and the relative growth was 0.978.
